According to US20080089874A1, “DIRECTED DIFFERENTIATION AND MATURATION OF STEM CELL-DERIVED CARDIOMYOCYTES” (The Regents of the University of California, priority 2006, published 2008):

Columns and labels:
[1] = tested on: ACMs; experiment: Whole-cell patch-clamp of […]-transduced guinea pig ACMs; type: cell-based; details: after 3 mM Ba^2+, spontaneously firing HCN-ΔΔΔ-transduced ACMs
[2] = tested on: adult guinea pig LVCMs; experiment: Whole-cell patch-clamp of adenovirus-transduced adult guinea pig LVCMs; type: cell-based
[3] = Table 1, Spontaneously firing cells

## BaCl2
[1]
  RMP: −0.8±0.2 mV
[2]; 1 mmol/L Ba^2+, control LVCMs
  block of IK1: completely blocked
[2]; 1 mmol/L Ba^2+, control ventricular cell
  spontaneous firing slower than that of genuine guinea pig nodal cells: ≈ 2.5 fold
[2]; [3]
  APD50: 296 ± 34 ms
  MDP: −46.3 ± 2.6 mV
  Pacing Rate: 92 ± 15 bpm
  Phase 4 Length: 465 ± 118 ms
  Phase 4 Slope: 46.2 ± 7.6 mV/s
